Measured values: patent US8268635B2, “Methods of identifying agents that selectively activate p38 and/or NKkB signaling” (priority 2006, dated 2012)

Key:
ERK1/ERK2 = ERK1/ERK2 activity in WEHI-164 cells; format: cell-based; conditions: 15 mins; TNF 1000 U/ml, TNF132-150 100 μg/ml
Procedure: The level of myelin basic protein phosphorylation was quantitated by an Instant Imager. A representative radiogram from the Instant Imager and pooled data (means±SEM of 3 experiments) are shown.
WEHI-164 cells were cultured in 28 cm^2 dishes to approx 80% confluence before the desired treatment. […] After washing twice with cold HBSS, cells were harvested by scraping and lysed in 400 μl of buffer A (20 mM HEPES, pH 7.4, 0.5% (v/v) Nonidet P-40, 100 mM NaCl, 1 mM EDTA, 2 mM Na3VO4, 2 mM dithiothreitol, 1 mM phenylmethylsulfonyl fluoride, and 10 μg/ml Sigma 104, leupeptin, aprotonin, pepstatin A, and benzamidine) for 2 h at 4° C. with constant mixing (Hii et al. (1998) J Biol Chem. 273(30):19277-82). After centrifugation (12,000 g×5 min), the supernatants were collected and the protein content of the lysates was determined by Lowry's method of protein determination. A solid phase assay using glutathione-S-transferase (GST)-conjugated-jun (1-79) was employed to assay JNK activity (Hii et al. (1998) J Biol Chem. 273(30):19277-82) GST-jun (1-79) was fractionated on 12% SDS polyacrylamide gels and the bands were detected and radioactivity determined using an Instant Imager (Packard Instruments, Canberra, Australia). […]

JNK = JNK phosphorylation in HL60 cells (western blot); format: cell-based; conditions: 15 min; TNF 100 U/ml, anisomycin 2.5 μg/ml

## TNF: Human recombinant TNF produced by Genentech, Inc.
ERK1/ERK2
  ERK1/ERK2 activation in WEHI-164 cells: able to activate all three MAP kinases
JNK
  JNK phosphorylation in HL60 cells: increased JNK phosphorylation
